From the Kinase Knowledgebase extract (Sharma et al. 2016) come the findings set out here.

Protein sequences, listed by entry. Tags and fused reporters are not part of them.
UniProt P42336, whole entry, looked up: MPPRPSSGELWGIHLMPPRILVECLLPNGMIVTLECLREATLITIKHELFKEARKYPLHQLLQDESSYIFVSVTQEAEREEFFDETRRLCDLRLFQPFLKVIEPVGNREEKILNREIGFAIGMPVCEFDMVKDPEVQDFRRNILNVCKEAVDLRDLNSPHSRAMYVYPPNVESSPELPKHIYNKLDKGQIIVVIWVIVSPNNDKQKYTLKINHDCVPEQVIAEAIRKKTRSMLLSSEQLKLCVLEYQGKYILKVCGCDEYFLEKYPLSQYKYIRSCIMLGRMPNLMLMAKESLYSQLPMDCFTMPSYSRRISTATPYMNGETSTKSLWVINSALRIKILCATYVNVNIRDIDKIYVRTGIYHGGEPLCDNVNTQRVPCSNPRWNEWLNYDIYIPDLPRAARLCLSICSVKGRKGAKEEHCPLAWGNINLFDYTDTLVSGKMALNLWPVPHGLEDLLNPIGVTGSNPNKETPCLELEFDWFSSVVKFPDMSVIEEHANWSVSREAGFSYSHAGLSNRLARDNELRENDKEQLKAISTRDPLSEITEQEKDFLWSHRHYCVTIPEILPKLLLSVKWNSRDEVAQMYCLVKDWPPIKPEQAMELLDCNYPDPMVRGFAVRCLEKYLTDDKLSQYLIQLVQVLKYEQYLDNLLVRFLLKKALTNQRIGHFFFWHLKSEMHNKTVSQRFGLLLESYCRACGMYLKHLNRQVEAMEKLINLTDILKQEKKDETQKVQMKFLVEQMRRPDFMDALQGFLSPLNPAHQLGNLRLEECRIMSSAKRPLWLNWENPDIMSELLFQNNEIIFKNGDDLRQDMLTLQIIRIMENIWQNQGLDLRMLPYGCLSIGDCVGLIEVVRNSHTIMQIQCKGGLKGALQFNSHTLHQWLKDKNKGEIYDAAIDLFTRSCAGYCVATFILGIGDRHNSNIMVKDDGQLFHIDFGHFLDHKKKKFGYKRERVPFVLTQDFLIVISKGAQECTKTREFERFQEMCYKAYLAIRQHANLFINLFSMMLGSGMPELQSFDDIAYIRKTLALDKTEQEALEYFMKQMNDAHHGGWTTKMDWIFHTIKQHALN

In this test the target is PIK3CA (human) (UniProt P42336). Description: Enzyme Assay.

Usually IC50 stands for the concentration at which inhibition is half-maximal. A high value points to weaker potency.

`CCc1ncnc(-c2ccc(C(=O)N3CC[C@H](N(C)C)C3)c(C)c2)c1C#Cc1ccc(N)nc1`: the IC50 came to 190 nM.
